From ChEMBL document CHEMBL1122944, “The histamine H2 receptor agonist impromidine: synthesis and structure-activity considerations” (J Med Chem, 1985)

Amino acid sequences for entries named in this document (tags omitted).
UniProt P47747, whole entry, looked up: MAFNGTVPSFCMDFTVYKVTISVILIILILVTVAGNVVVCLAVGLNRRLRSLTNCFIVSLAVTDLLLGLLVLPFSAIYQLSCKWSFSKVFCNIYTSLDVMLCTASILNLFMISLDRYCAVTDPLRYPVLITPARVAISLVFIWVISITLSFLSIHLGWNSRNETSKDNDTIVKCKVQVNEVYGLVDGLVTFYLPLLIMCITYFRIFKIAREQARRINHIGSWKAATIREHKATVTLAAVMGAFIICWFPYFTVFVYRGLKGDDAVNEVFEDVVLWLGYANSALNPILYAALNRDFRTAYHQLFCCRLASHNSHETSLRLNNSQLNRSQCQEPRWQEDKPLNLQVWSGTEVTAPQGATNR

Assays:
[1] = target: Histamine H2 receptor (Cavia porcellus) (UniProt P47747); test: Agonistic activity against histamine H2 receptor in guinea pig atrium (potency relative to histamine =1); assay type: functional, tissue-based; details: Cardiac atrium
How it was run: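 Isolated guinea pig atrium, muscle under 400-mg tension, propranolol (0.5 μM) present. Agonist tested up to 781 μM (0.1% histamine) by cumulative dose-response curves. Potency relative to histamine taken from concentrations giving 50% of maximal response; selected compounds by 2 + 2 Latin square parallel-line assay against histamine.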

[2] = target: Histamine H2 receptor (Cavia porcellus) (UniProt P47747); test: Percent maximum response against histamine H2 receptor in guinea pig atrium was evaluated; assay type: tissue-based; details: Cardiac atrium
How it was run: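 Isolated guinea pig atrium under 400-mg tension with propranolol (0.5 μM). Complete cumulative dose-response curves to histamine and test agonist, up to 781 μM, used to find the maximum response obtainable, expressed relative to histamine.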

SMILES: Cc1[nH]cnc1CSCCSC(=N)NCCCc1c[nH]cn1
- Potency [1]: 6.85
- Max response [2]: 83%
